## Ab-95 light chain CDR variants: yeast mating affinities

Target: peptide PDVDLGDISGINAS, taken from heptad repeat 2 (HR2) of SARS-CoV-2 spike.

Parent: Ab-95, a human scFv built as VH, the linker GGGGSGGGGSGGGGS, VL. Only the CDRs of the light chain vary.
VH: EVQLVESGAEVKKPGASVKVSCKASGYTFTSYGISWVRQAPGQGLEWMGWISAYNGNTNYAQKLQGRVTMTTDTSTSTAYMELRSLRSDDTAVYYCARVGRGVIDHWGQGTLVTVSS
VL: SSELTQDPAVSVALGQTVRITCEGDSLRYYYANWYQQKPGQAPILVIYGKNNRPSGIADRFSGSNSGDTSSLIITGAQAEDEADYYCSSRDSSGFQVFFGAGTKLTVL

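The starting antibody came from a phage panning campaign against this peptide. Library AAYL52 holds single substitutions and randomly drawn double and triple substitutions in the CDRs. AlphaSeq pools MATa yeast showing the antibodies with MATalpha yeast showing the peptide. After mating in shaken culture at 30 °C for 16 h, diploids were selected and their barcode pairs sequenced. Read counts were normalised to the haploid input and turned into Kd by a linear fit to BCL2-family pairs of known affinity, for each replicate. The assay was run in three technical replicates.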

Substitutions are numbered in sequence along the VL above, starting at 1 (not Kabat).
Every variant below is changed at V97 of the VL (sequential numbering).
Values are apparent Kd, the geometric mean of the replicates that gave a signal; lower means stronger binding.
"nd" means that the variant was in the library but no mating with the target was seen in any replicate; the authors take this as a sign of poor binding, and no number exists.
Empty control strains, which show no peptide, gave a signal in 28% of pairings with library AAYL52; the median was 8.2 µM and 95% of these signals were weaker than 800 nM. No background was subtracted.

changes	Kd (apparent)	replicates with signal
S26D/S55I/V97W	1.4 µM	3 of 3
K50M/S93C/V97L	220 nM	3 of 3
L27Q/S93G/V97L	4.6 µM	3 of 3
D25Y/V97I	240 nM	3 of 3
R28L/Y30C/V97D	nd	0 of 3
V97G	92 nM	3 of 3
R28P/Y30Q/V97K	290 nM	3 of 3
N51R/V97P	2.4 µM	1 of 3
R28C/Y29S/V97F	3.5 µM	3 of 3
S26E/Q96N/V97N	5.2 µM	3 of 3
G24R/S88D/V97K	61 µM	1 of 3
S55M/F95L/V97Q	470 nM	3 of 3
E23W/S26I/V97W	4.1 µM	2 of 3
S26M/R53P/V97A	3.2 µM	2 of 3
D25A/S93D/V97G	nd	0 of 3
Y29V/N51V/V97F	11 µM	1 of 3
N33Q/D91H/V97E	8.2 µM	1 of 3
K50S/D91T/V97D	790 nM	3 of 3
V97P	1.7 µM	3 of 3
S89E/Q96P/V97P	9.9 µM	2 of 3
Y30H/V97R	2.6 µM	3 of 3
N33L/V97I	nd	0 of 3
E23W/G94C/V97N	1.3 µM	3 of 3
L27S/G94V/V97P	14 µM	2 of 3
R53K/V97Y	2.6 µM	3 of 3
G24C/V97D/F98S	3.9 µM	2 of 3
E23L/N52S/V97E	1.2 µM	3 of 3
G49W/S93A/V97S	50 µM	1 of 3
S26A/P54S/V97I	3.8 µM	3 of 3
K50P/Q96I/V97S	200 nM	3 of 3
A32F/N52Y/V97D	nd	0 of 3
G24D/Y29P/V97M	11 µM	2 of 3
G49V/S88F/V97S	56 µM	1 of 3
L27K/K50Y/V97P	2.8 µM	1 of 3
Y29H/Y31A/V97S	230 nM	3 of 3
S92L/F95M/V97L	300 µM	1 of 3
S55V/S92L/V97A	650 nM	3 of 3
S55V/D91V/V97F	2.3 µM	2 of 3
L27Y/Y31H/V97K	25 µM	2 of 3
L27V/V97D	nd	0 of 3
S26C/G94K/V97T	nd	0 of 3
R90V/Q96H/V97G	500 nM	1 of 3
G49F/V97M	7.4 µM	1 of 3
E23S/K50A/V97T	170 nM	3 of 3
S93V/V97Q/F98A	5.8 µM	1 of 3
G49P/G94S/V97K	nd	0 of 3
Y31A/S92W/V97D	37 nM	3 of 3
L27Y/V97S/F98W	nd	0 of 3
Y29S/S92V/V97S	nd	0 of 3
G49S/V97M	160 µM	1 of 3
A32N/S89N/V97I	190 µM	1 of 3
Y29M/R90D/V97W	810 nM	3 of 3
K50Q/V97I	5.3 µM	3 of 3
R28N/N33C/V97W	65 µM	2 of 3

Excerpt, the first 7 entries:

changes	Kd (apparent)	replicates with signal
S26D/S55I/V97W	1.4 µM	3 of 3
K50M/S93C/V97L	220 nM	3 of 3
L27Q/S93G/V97L	4.6 µM	3 of 3
D25Y/V97I	240 nM	3 of 3
R28L/Y30C/V97D	nd	0 of 3
V97G	92 nM	3 of 3
R28P/Y30Q/V97K	290 nM	3 of 3

Source: Engelhart et al. 2022 (doi:10.1038/s41597-022-01779-4), MIT Lincoln Laboratory and A-Alpha Bio; data file from the FLAb repository.